These results are taken from US5763625A, “Synthesis and use of β-lapachone analogs” (priority 1995, dated 1998).

The test system of this assay is Topo I enzyme activity in U1-Mel cells. Description: Down-regulation of Topo I activity in irradiated U1-Mel cells with ADPRT inhibitors. The format is cell-based, human. The following applies: 0.5 μM.

“Also recorded” adds a separate entry of the source.

Take `Cc1cccc2c1CCNC2=O` [PD 1]: for the setting “1 hour prior to or 4 hours immediately after 400 cGy”, the “effect on down-regulation of Topo I enzyme activity” value is recorded as “prevented the down-regulation; also recorded: restored Topo I activity”. Besides, under “UV-irradiation 10 J/M^2”, the “effect on down-regulation of Topo I activities after UV-irradiation” value was “prevented this down-regulation”.
